This passage reports IC50 and Ki results from BindingDB's records for doi:10.1016/j.bmcl.2004.07.073 (University of Southern California, 2004).

In assay [1] the target is T1, Cathepsin B (Homo sapiens, UniProt P07858). Put plainly: Inhibitory concentration against human liver cathepsin B.
Assay [2] deals with T1, Cathepsin B. Put plainly: Tested for inhibitory effect on human liver cathepsin B.

The molecule `CC[P+](CC)(CC)[Au-][S][C@@H]1O[C@H](COC(C)=O)[C@@H](OC(C)=O)[C@H](OC(C)=O)[C@H]1OC(C)=O` gave an IC50 on Cathepsin B [1] of 250 µM. Besides, the Ki at Cathepsin B [2] is 440 µM.
